From US6197760A (priority 2000, dated 2001)

Assays:
[1] = tested on: experimental leukemias and solid tumors; assay: Activity against experimental leukemias and solid tumors, overall comparison; assay type: in vivo; settings: mice and rats; as illustrated in Tables 1 and 2
Lewis lung carcinoma = assay: Response of s.c. implanted Lewis lung carcinoma (Table 2); settings: i.p.; for Log kill total (Log10 cell kill): calculated from T C value/(3.32 T4)
P388 leukemia = assay: Evaluation against i.p. implanted P388 leukemia (Table 3); assay type: in vivo, murine; settings: IP; Q1DX1 (1); 100 mg/kg
mammary tumor 16/C = assay: Evaluation against mammary tumor 16/C (FIGURE); assay type: in vivo, murine; settings: results shown in the figure
[2] = tested on: MCF-7 mammary tumor xenograft; assay: Response of s.c. implanted MCF-7 mammary tumor xenograft (Table 5); assay type: in vivo, human; settings: doses equal to or less than the LD20, 5-day treatment schedule
[3] = day 2, Q5 min × 7, 30 mg/kg/dose

Structure (SMILES)	comparative therapeutic efficacy against experimental leukemias and solid tumors [1]	Highest non-toxic dosage (MTD) (Lewis lung carcinoma; day 2, Q5 min × 7)	% ILS (increase in life span, excluding survivors) (Lewis lung carcinoma; [3])	Tumour-free survivors (Lewis lung carcinoma; [3])	Log kill total (Log10 cell kill) (Lewis lung carcinoma; [3])	Highest non-toxic dosage (MTD) (Lewis lung carcinoma; day 2, single dose)	% ILS (increase in life span, excluding survivors) (Lewis lung carcinoma; day 2, single dose at MTD)	Tumour-free survivors (Lewis lung carcinoma; day 2, single dose at MTD)	Log kill total (Log10 cell kill) (Lewis lung carcinoma; day 2, single dose at MTD)	45-Day Surv/Total (P388 leukemia)	% ILS (P388 leukemia)	Approx. Net Log10 Change In Tumor Burden at End of Rx (P388 leukemia)	Median Day of Death (P388 leukemia)	tumor response / comparative activity vs. 16/C (mammary tumor 16/C)	Days Delay (T-C) [2]
NP(=O)(O)N(CCCl)CCCl	inferior to IPM against experimental solid tumors	30 mg kg^-1 /dose	17%	0/10	1.5 log10	200 mg kg^-1 /dose	15%	0/10	1.2 log10						
CS(=O)(=O)OCCNP(=O)(O)NCCOS(C)(=O)=O										0/5	+64%	-4.8 Log10	18.0 days	none of which caused tumor regression	4.7 days
